# Settings: PMVMA microneedles attached to aqueous fluid reservoirs containing 10,000 μg BSA cm^-3; FIG. 13
substance,measurement,value
bovine serum albumin [BSA],delivery of BSA across Silescol membrane,delivery of significant levels
